Columns and labels:
[1] = Octanol-water log P, shake flask method; type: physicochemical; details: RP-HPLC-MS
[2] = set-up: method as in Ul-Haq et al.; details: ref Ul-Haq et al.; cited from earlier work

## Deferoxamine mesylate [DFO]
[1]
  Log P (experimentally obtained): –0.02
[2]
  LD50: 250 mg·kg^–1

Source: PMC12754760, “Size-Controlled Mesoporous Silica Nanoparticles via Template Nanoarchitectonics from a Deferoxamine Derivative for Enhanced Blood–Brain Barrier Permeability and Neuroprotective Chelation Therapy” (ACS Applied Materials & Interfaces, 2025)
